From PubChem BioAssay AID504444 (National Center for Advancing Translational Sciences (NCATS), 2011)
“And” between values parts separate entries of the source, which are not always exact repeats. Equal values may be shown once. Only a part is listed here, and it is no random draw. Some results for these compounds are left out of this collection, so the calls shown say nothing about other tests. Inconclusive results are not listed. The source made the active and inactive calls. Calls follow the shape of the dose curve; as a rule, active = well fitted inhibition curve with a large enough effect; inconclusive = small, poorly fitted or top-dose-only effect, or effect the other way; inactive = flat fitted curve, though single readings scatter.

Assay: Nrf2 qHTS screen for inhibitors; also: nearly all actives have a fitted effect of over 60% in size
Conditions: A549 ARE-Fluc reporter, luciferase luminescence, 18-24 h; at 46 µM (top of the series)
% is scaled to controls: 0 for no effect and ±100 for the full control effect.

Structure (SMILES) | activity change, negative = inhibition
O=C(OC1CN2CCC1CC2)C(CO)(c1ccccc1)c1ccccc1 (stereo not drawn) | inactive: -4.1%
COc1cccc(C(=O)NCC2(N3CCOCC3)CCCCC2)c1 | inactive: 13.3%
CC(C)COc1ccc(C(=O)NCC2(N(C)C)CCCCC2)cc1 | inactive: 6.32%
COc1ccc(Br)c(C(=O)NCC2(N3CCCCC3)CCCCC2)c1 | inactive: -5.52%
Cc1cccc(C(=O)NCC2(N(C)C)CCCCC2)c1 | inactive: 2.79%
COc1cc(C(=O)NCC2(N(C)C)CCCCC2)cc(OC)c1OC | inactive: 18.5%
O=C(OCCN1CCCC1)C(O)(c1ccccc1)c1ccccc1 | inactive: -0.283%
CC(C)Oc1ccc(C(=O)NCC2(N(C)C)CCCCC2)cc1 | inactive: 7.68% and inactive: -5.36%
COc1cc(C(=O)NCC2(N(C)C)CCCCC2)c([N+](=O)[O-])cc1OC | inactive: 0.564%
COc1ccc(C(=O)NCC2(N(C)C)CCCCC2)cc1Cl | inactive: 11.5%
COc1ccc(Cl)cc1C(=O)NCC1(N(C)C)CCCCC1 | inactive: 0.576%
COc1cccc(C(=O)NCC2(N3CCCCC3)CCCCC2)c1 | inactive: 3.05%
O=C(NCC1(N2CCCCC2)CCCCC1)c1cccc(Cl)c1 | inactive: -1.78%
CN(C)C1CCCC1OC(=O)C(O)(c1ccccc1)c1ccccc1 (stereo not drawn) | inactive: 7.6%
CN(C)c1ccc(C(=O)NCC2(N(C)C)CCCCC2)cc1 | inactive: 0.744%
CN(C)C1(CNC(=O)c2ccccc2[N+](=O)[O-])CCCCC1 | inactive: 14.6%
Cc1ccccc1C(=O)NCC1(N2CCCCC2)CCCCC1 | inactive: 19.3%

Structure (SMILES) | activity change, negative = inhibition
CCCCOc1ccccc1C(=O)NCC1(N(C)C)CCCCC1 | inactive: -0.461%
O=C(NCC1(N2CCCCC2)CCCCC1)c1cc(F)c(F)cc1Cl | inactive: 2.99%
C=CCN1CCN(CCOC(=O)C(O)(c2ccccc2)c2ccccc2)CC1 | inactive: 10.3%
O=C(NCC1(N2CCCCC2)CCCCC1)c1cccc(Br)c1 | inactive: -11%
Cc1cc(C(=O)NCC2(N3CCCCC3)CCCCC2)ccc1[N+](=O)[O-] | inactive: 16.1%
CCN1CCCC(OC(=O)C2(O)c3ccccc3C=Cc3ccccc32)C1 (stereo not drawn) | inactive: 2.17%
CCOc1cccc(C(=O)NCC2(N(C)C)CCCCC2)c1 | inactive: 14.2%
COc1ccc(C(=O)NCC2(N(C)C)CCCCC2)cc1 | inactive: 10%
O=C(NCC1(N2CCCCC2)CCCCC1)c1cc([N+](=O)[O-])ccc1Cl | inactive: 14.7%
CN1[C@@H]2CC[C@H]1CC(OC(=O)C(O)(c1ccccc1)c1ccccc1)C2 (stereo partly drawn) | inactive: -8.69%
CC(C)N1C(=O)CC2(CCN(CCOC(=O)C(O)(c3ccccc3)c3ccccc3)CC2)C1=O | inactive: 19.6%
COc1cc(SC)ccc1C(=O)NCC1(N(C)C)CCCCC1 | inactive: 22.5%
CCN(CC)CC(C)C(C)OC(=O)C(O)(c1ccccc1)c1ccccc1 (stereo not drawn) | inactive: 3.54%
CN(C)C1(CNC(=O)c2cccc(Cl)c2)CCCCC1 | inactive: 5.35%
CN(C)C1(CNC(=O)c2ccccc2F)CCCCC1 | inactive: -0.928%
Cc1ccc(C(=O)NCC2(N3CCCCC3)CCCCC2)cc1 | inactive: 9.22%
